# Assay results published in US20130040405A1, “METHODS FOR SENSITIVE AND RAPID DETECTION OF MOLECULES” (published 2013).
# System: anti-TNT monoclonal antibody (A1.1.1)
# Assay: ELISA measurement of anti-TNT antibody displacement from TNB-ovalbumin by TNT and TNT analogs
# Conditions: displacement of antibody A1.1.1 from immobilized TNB-ovalbumin
smiles,measurement,value
Cc1c(N)cc([N+](=O)[O-])cc1[N+](=O)[O-],Concentration upon 50% of antibody displacement,0.94 µg/mL
